The results in this text go back to patent US8158591B2, “Anticancer treatment with a combination of taxanes and 13-deoxyanthracyclines” (Gem Pharmaceuticals, LLC, priority 2006, dated 2012).

This assay deals with P388 murine leukemia. As to the kind of experiment: in vivo anticancer activity in murine leukemia model, CD2F1 mice injected with P388 cells. To be noted: 1 million P388 cells ip, drug ip on days 1-9, n = 10, listed as 5-imino-13-deoxydoxorubicin.

Consider `COc1cccc2c1C(=N)c1c(O)c3c(c(O)c1C2=O)C[C@@](O)(CCO)C[C@@H]3OC1CC(N)C(O)C(C)O1` (stereo partly shown) [Compound III], for which the Median survival time entry was “significant increase in median survival time”.
